Common to all, as to format: functional
The subject of one assay is Pseudomonas aeruginosa. The assay can be described thus: Minimum inhibitory concentration against Pseudomonas aeruginosa ATCC 9027.
The next assay deals with Staphylococcus aureus. Briefly: Minimum inhibitory concentration against Staphylococcus aureus ATCC 6538.
The subject of a further assay is Escherichia coli. The assay can be described thus: Minimum inhibitory concentration against Escherichia coli ATCC 25922.

Each structure is given as a SMILES string. In brackets after ≈: the same amount, converted by molar mass.

By MIC is commonly meant the smallest concentration in the dilution series that meets the test's criterion for growth inhibition.

Take `CC[C@H](C)[C@H](NC(=O)CN)C(=O)NCC(=O)N[C@@H](C)C(=O)N[C@H](C(=O)N[C@@H](CC(C)C)C(=O)N[C@@H](CCCCN)C(=O)N[C@H](C(=O)N[C@@H](CC(C)C)C(=O)N[C@H](C(=O)N[C@H](C(=O)NCC(=O)N[C@@H](CC(C)C)C(=O)N1CCC[C@H]1C(=O)N[C@@H](C)C(=O)N[C@@H](CC(C)C)C(=O)N[C@H](C(=O)N[C@@H](CO)C(=O)N[C@@H](Cc1c[nH]c2ccccc12)C(=O)N[C@H](C(=O)N[C@@H](CCCCN)C(=O)N[C@@H](CCCNC(=N)N)C(=O)N[C@@H](CCCCN)C(=O)N[C@@H](CCCNC(=N)N)C(=O)N[C@@H](CCC(N)=O)C(=O)N[C@@H](CCC(N)=O)C(N)=O)[C@@H](C)CC)[C@@H](C)CC)[C@@H](C)O)[C@@H](C)O)C(C)C)C(C)C` [MELITTIN]: the MIC came to 1.56 µg/mL (≈ 0.548 µM) in the assay on Pseudomonas aeruginosa, 3.12 µg/mL (≈ 1.1 µM) against Staphylococcus aureus and 3.12 µg/mL (≈ 1.1 µM) with Escherichia coli.

The record behind these values is ChEMBL document CHEMBL1147581, “Development of novel lipid-peptide hybrid compounds with antibacterial activity from natural cationic antibacterial peptides” (Bioorg Med Chem Lett, 2004).
